Ab-14 heavy chain CDR variants: yeast mating affinities

Binding partner: SARS-CoV-2 spike HR2 peptide, sequence PDVDLGDISGINAS.

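The variants were designed computationally from a first round of random CDR variants and then made and measured. Several design methods are mixed in this list. The assay is AlphaSeq: two haploid yeast populations carry antibody and antigen on their surface. The frequency of each diploid, read from paired DNA barcodes, reflects how well the two displayed proteins bind. The ratio of observed to expected reads was calibrated, replicate by replicate, on BCL2-family standards whose Kd was known from biolayer interferometry. Mating was done six times.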

Parent: Ab-14, a human scFv built as VH, a 15-residue (Gly4Ser)3 linker, VL. Only the CDRs of the heavy chain vary.
VH: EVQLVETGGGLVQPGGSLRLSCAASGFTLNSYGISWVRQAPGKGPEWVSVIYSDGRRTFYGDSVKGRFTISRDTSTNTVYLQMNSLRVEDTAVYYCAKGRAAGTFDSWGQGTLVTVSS
VL: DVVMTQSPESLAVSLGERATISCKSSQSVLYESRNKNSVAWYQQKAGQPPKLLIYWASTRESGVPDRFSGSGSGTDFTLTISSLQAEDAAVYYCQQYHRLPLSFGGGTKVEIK

Substitutions are numbered in sequence along the VH above, starting at 1 (not Kabat). Variants here have at most six changes. The Kd shown is the geometric mean over detected replicates; a lower Kd is a better binder. An entry "no signal" has no value in the source: the pair was not observed among the diploids in any replicate. This suggests poor binding but is not conclusive. Order: sorted from the lowest average up, undetected variants last. Where one sequence has several entries in the source, the replicates are pooled. Of ten entries with the parent sequence, four were seen in most replicates (averages 2.2 nM to 240 nM), three in one and three in none, so single entries are noisy. Background: pairings of all heavy chain designs with three empty control strains gave a value in 1% of cases (median 120 nM, 5th percentile 7.0 nM). Values in that range, when seen in few replicates, are hard to tell from nonspecific mating. For each scFv, signals with the empty controls are counted beside the result. A sequence measured in both rounds can read differently, since the two assays cover different ranges. In the paper, a design with two or fewer of six values counts as a poor binder.

* T28S/S53A/A101V: 300 pM (6 of 6 replicates; controls 0 of 18)
* T28D/S31E/S53A/G61S/R100N/A101L: 610 pM (6 of 6 replicates; controls 1 of 18)
* T28S/S53A/S107D: 630 pM (6 of 12 replicates; controls 1 of 36)
* T28E/F59A/S63A/A101T: 880 pM (6 of 6 replicates; controls 0 of 18)
* T28D/R100Q/S107A: 1.2 nM (6 of 6 replicates; controls 0 of 18)
* T28N/R100A/A101E: 1.2 nM (6 of 6 replicates; controls 0 of 18)
* T28S/S53A/S107M: 1.3 nM (6 of 6 replicates; controls 0 of 18)
* T28S/G61T/S63D/R100N: 1.4 nM (6 of 6 replicates; controls 0 of 18)
* T28E/G61S/R100K/A101T/S107T: 1.6 nM (6 of 6 replicates; controls 0 of 18)
* T28S/F59A/A101T: 1.7 nM (6 of 6 replicates; controls 0 of 18)
* T28S/R56K/R100Q: 2.2 nM (6 of 6 replicates; controls 0 of 18)
* T28D/S31D/G61K: 2.3 nM (6 of 6 replicates; controls 0 of 18)
* T28E/G61A/R100K/A101T/S107T: 2.5 nM (6 of 6 replicates; controls 0 of 18)
* G26Y/T28S/G61A/R100E: 13 nM (5 of 6 replicates; controls 0 of 18)
* T28G/R100T/S107D: 18 nM (4 of 6 replicates; controls 0 of 18)
* R56E/A101Q: 25 nM (1 of 6 replicates; controls 0 of 18)
* T28Q/S31E/R100Q/S107D: 39 nM (6 of 6 replicates; controls 1 of 18)
* G26K/T28D/G61V/R100K/A101T: 42 nM (6 of 6 replicates; controls 0 of 18)
* R56V/S107N: 82 nM (3 of 6 replicates; controls 0 of 18)
* G61A/S63Q/R100K: 110 nM (6 of 6 replicates; controls 1 of 18)
* A101I/S107G: 120 nM (2 of 6 replicates; controls 0 of 18)
* T28S/S31E/A101T/D106F: 170 nM (2 of 6 replicates; controls 0 of 18)
* N30E/G61E/A101C: 210 nM (2 of 6 replicates; controls 0 of 18)
* G61E/S63A/R100Q: 300 nM (2 of 6 replicates; controls 0 of 18)
* G26K/T28N/G61I/A101M: 690 nM (2 of 6 replicates; controls 0 of 18)
* T28A/G61A/G103Y: no signal (0 of 6 replicates; controls 0 of 18)
* R56A/F59A/S63K/A101T/T104D: no signal (0 of 6 replicates; controls 0 of 18)
* S31D/F59Q/G61I/F105V: no signal (0 of 6 replicates; controls 2 of 18)
* L29C/A101Y/A102D: no signal (0 of 6 replicates; controls 0 of 18)
* T28E/F59A/R100K: no signal (0 of 6 replicates; controls 0 of 18)
* T28E/S31T/A101E: no signal (0 of 6 replicates; controls 0 of 18)
* F27H/S31E/Y52P/G103V/S107Q: no signal (0 of 6 replicates; controls 0 of 18)
* T28S/A101G/A102T: no signal (0 of 6 replicates; controls 0 of 18)
* N30E/S35Q/G99E: no signal (0 of 6 replicates; controls 0 of 18)
* S31D/R56K/G61Q/D106P: no signal (0 of 6 replicates; controls 0 of 18)
* T28S/A101T/D106W: no signal (0 of 6 replicates; controls 0 of 18)
* S35Q/R56K/F59A: no signal (0 of 6 replicates; controls 0 of 18)
* S31E/S35K/G61T/A101F/D106T: no signal (0 of 6 replicates; controls 0 of 18)
* S63R/R100Q/A101T/S107V: no signal (0 of 6 replicates; controls 0 of 18)
* S31E/G61A/A101F/S107N: no signal (0 of 6 replicates; controls 0 of 18)
* T28D/G61Q/A101V: no signal (0 of 6 replicates; controls 0 of 18)
* T28R/R56I: no signal (0 of 6 replicates; controls 0 of 18)
* I51M/D62Q/G99S/F105A: no signal (0 of 6 replicates; controls 0 of 18)
* S53A/S63D/R100K/D106K: no signal (0 of 6 replicates; controls 0 of 18)

Excerpt, the final 4 entries:

changes	Kd	detected	empty controls
T28D/G61Q/A101V	no signal	0 of 6	0 of 18
T28R/R56I	no signal	0 of 6	0 of 18
I51M/D62Q/G99S/F105A	no signal	0 of 6	0 of 18
S53A/S63D/R100K/D106K	no signal	0 of 6	0 of 18

Reference: Li et al. 2023, doi:10.1038/s41467-023-39022-2. File: FLAb, binding data.